According to PubChem BioAssay AID1458 (National Center for Advancing Translational Sciences (NCATS), 2008):
Only a part is listed here, and it is no random draw. Inconclusive results are not listed. Some salts or complexes appear as unconnected parts, following the source record. Active and inactive are the calls of the source. Calls come from the whole dose curve; as a rule, active = well fitted activation curve with a large enough effect; inconclusive = small, poorly fitted or top-dose-only effect; inactive = no such curve, though single readings can be large or run the other way.

test: qHTS Assay for Enhancers of SMN2 Splice Variant Expression; details: HEK293 SMN2-luciferase splicing reporter, luminescence, 30-36 h; at 46.1 µM (top of the series) unless noted; note: % of control where 0% means no effect; nearly all actives have a fitted effect of over 55% in size

Row | SMILES | activity change, positive = activation
1 | COc1ccccc1OP(C)(=O)Nc1ccc(C)cc1C (stereo unspecified) | inactive: 4.9%
2 | CP(=O)(Nc1ccccn1)Oc1ccccc1 (stereo unspecified) | inactive: -1.4%
3 | Cc1c(NP(C)(=O)Oc2ccc(C(C)C)cc2)c(=O)n(-c2ccccc2)n1C (stereo unspecified) | inactive: -16%
4 | CN(C)CCOC(=O)C(O)(c1ccccc1)C1CCCC1 (stereo unspecified) | inactive: -6.65%
5 | COc1ccc(OP(C)(=O)Nc2ccccn2)cc1 (stereo unspecified) | inactive: 6.26%
6 | CP(=O)(OCCOc1ccccc1)OCCOc1ccccc1 | inactive: 2.37%
7 | CP(=O)(Nc1ccc(Cl)cc1Cl)Oc1ccccc1 (stereo unspecified) | inactive: -12.2%
8 | Cc1nc2ccc3ccccc3c2o1.O=[N+]([O-])c1cc([N+](=O)[O-])c(O)c([N+](=O)[O-])c1 | inactive: 10.5%
9 | COc1ccc(OP(C)(=O)Nc2ccccc2Br)cc1 (stereo unspecified) | inactive: -10.9%
10 | C/C1=C2N=C(/C=C3N=C(/C(C)=C4\[N-][C@@](C)([C@H]5N=C1[C@@](C)(CCC(=O)NC[C@H](C)OP(=O)([O-])O[C@@H]1[C@H](O)[C@H](n6cnc7cc(C)c(C)cc76)O[C@@H]1CO)[C@@H]5CC(N)=O)[C@](C)(CC(N)=O)[C@H]4CCC(N)=O)[C@@](C)(CC(N)=O)[C@@H]\3CCC(N)=O)C(C)(C)[C@@H]/2CCC(N)=O.[C-]#N.[Co+3] | inactive: -5.65% [at 20.6 µM]
11 | CP(=O)(OC12CC3CC(CC(C3)C1)C2)OC12CC3CC(CC(C3)C1)C2 | inactive: -9.84%
12 | CCOC(=O)c1ccc(NP(C)(=O)Oc2ccc(Cl)cc2)cc1 (stereo unspecified) | inactive: -8.02%
13 | CN(C)C(=O)c1c([N+](=O)[O-])cc([N+](=O)[O-])cc1[N+](=O)[O-] | inactive: -0.846%
14 | CP(=O)(Nc1ccc(Cl)cc1)Oc1ccc(F)cc1 (stereo unspecified) | inactive: -18%
15 | CC(C)(C)c1ccc(OP(C)(=O)O)cc1 | inactive: 7.32%
16 | CCc1ccc(OP(C)(=O)Nc2cccnc2)cc1 (stereo unspecified) | inactive: -2.89%
17 | CP(=O)(Oc1ccccc1)N1CCOC1=O (stereo unspecified) | inactive: -7.51%
18 | OCCSCCO | inactive: 1.91%
19 | COc1ccccc1OP(C)(=O)Nc1c(C)n(C)n(-c2ccccc2)c1=O (stereo unspecified) | inactive: -13.2%
20 | N#[O+].[C-]#N.[C-]#N.[C-]#N.[C-]#N.[C-]#N.[Fe+2].[Na+].[Na+] | inactive: -1.28%
21 | COc1ccc(OP(C)(=O)Nc2ccc(Br)cc2)cc1 (stereo unspecified) | inactive: 3.68%
22 | CCN(CC)CC(O)COC(=O)C(O)(c1ccccc1)C1CCCCC1 (stereo unspecified) | inactive: 6.25%
23 | NNC(NN)NN.n1nc(-c2nn[nH]n2)n[nH]1 | inactive: -3.88% [at 9.22 µM]
24 | [NH4+].[O-][Cl+3]([O-])([O-])[O-] | inactive: -2.1%
25 | CCN(CCCl)Cc1ccccc1C | inactive: -27%
26 | Cc1ccccc1NP(C)(=O)Nc1ccccc1C | inactive: 7.61%

Row | SMILES | activity change, positive = activation
27 | CP(=O)(Nc1ccc2c(c1)OCCO2)Oc1ccccc1 (stereo unspecified) | inactive: -21.4%
28 | CCOP(=O)(CC)OCC | inactive: 6.8%
29 | CCOP(C)(=S)SCC(=O)NC(C)(CC)C(=O)O (stereo unspecified) | inactive: -31.8%
30 | Cc1ccc([N+](=O)[O-])c([N+](=O)[O-])c1 | inactive: 4.11%
31 | Cc1c([N+](=O)[O-])cccc1[N+](=O)[O-] | inactive: -3.45%
32 | CN(C)CCOC(=O)C(O)(c1ccccc1)C1CCCCC1 (stereo unspecified) | inactive: 10.3%
33 | CP(=O)(Nc1ccccc1)Oc1ccc(F)cc1 (stereo unspecified) | inactive: -1.69%
34 | CCN(CC)CCCOC(=O)C(O)(c1ccccc1)C1CCCCC1 (stereo unspecified) | inactive: 6.05%
35 | COc1ccc(OP(C)(=O)Nc2ccc(SC(F)(F)F)cc2)cc1 (stereo unspecified) | inactive: 4.96%
36 | CCOC(=O)c1ccc(NP(C)(=O)Oc2ccc(F)cc2)cc1 (stereo unspecified) | inactive: -63.7%
37 | Cc1cccc([N+](=O)[O-])c1[N+](=O)[O-] | inactive: 0.795%
38 | CCC(C)(OO)OOC(C)(CC)OO (stereo unspecified) | inactive: 13.9%
39 | O=C(OCCN1CCN(CCOCc2ccccc2)CC1)C(O)(c1ccccc1)c1ccccc1 | inactive: -20.2%
40 | CC(C)c1ccc(OP(C)(=O)Nc2ccc(SC(F)(F)F)cc2)cc1 (stereo unspecified) | inactive: -21.7%
41 | CP(=O)(Nc1ccccc1F)Oc1ccccc1 (stereo unspecified) | inactive: 9.08%
42 | CP(=O)(Nc1cccc(Br)c1)Oc1ccccc1 (stereo unspecified) | inactive: -11.6%
43 | Cc1cc(C)cc(OP(C)(=O)Nc2ccccn2)c1 (stereo unspecified) | inactive: 4.32%
44 | Cc1ccc(C)c(NP(C)(=O)Oc2ccccc2)c1 (stereo unspecified) | inactive: -3.27%
45 | Cc1cc(C)cc(OP(C)(=O)Nc2ccc(C)cc2C)c1 (stereo unspecified) | inactive: -6.86%
46 | CCOC(=O)c1ccc(NP(C)(=O)Oc2cc(C)cc(C)c2)cc1 (stereo unspecified) | inactive: -7.22% [at 1.84 µM]
47 | Cc1ccc([N+](=O)[O-])cc1[N+](=O)[O-] | inactive: -1.5%
48 | CC1=NCCc2c1[nH]c1ccccc21.O=[N+]([O-])c1cc([N+](=O)[O-])c(O)c([N+](=O)[O-])c1 | inactive: 7.36%
49 | O=[N+]([O-])c1cccc([N+](=O)[O-])c1 | inactive: 15.9%
50 | CP(=O)(Nc1ccc(SC(F)(F)F)cc1)Oc1ccccc1 (stereo unspecified) | inactive: -17.4%
51 | CCCOc1ccc(NP(C)(=O)Oc2ccc(Cl)cc2)cc1 (stereo unspecified) | inactive: -14.5%
52 | COc1ccccc1OP(C)(=O)Nc1c(C)cccc1C (stereo unspecified) | inactive: -12.1%

Row | SMILES | activity change, positive = activation
53 | CN1CCCCC1COC(=O)C1(O)c2ccccc2CCc2ccccc21 (stereo unspecified) | inactive: -3.05%
54 | Cc1nc2ccc3ccccc3c2s1.O=[N+]([O-])c1cc([N+](=O)[O-])c(O)c([N+](=O)[O-])c1 | inactive: -0.0653%
55 | O=[N+]([O-])c1cc([N+](=O)[O-])c(-n2nnc3ccccc32)c([N+](=O)[O-])c1 | inactive: 3.03%
56 | CP(=O)(Nc1ccccn1)Oc1ccc(Cl)cc1 (stereo unspecified) | inactive: -0.767%
57 | CCOP(C)(=S)SCC(=O)NC(C)C(=O)O (stereo unspecified) | inactive: -6.45%
58 | Cc1cc(C)cc(OP(C)(=O)Nc2ccc(SC(F)(F)F)cc2)c1 (stereo unspecified) | inactive: -6.16%
59 | CP(=O)(NC(=O)Nc1ccccc1)Oc1ccccc1 (stereo unspecified) | inactive: 2.99%
60 | CP(=O)(Oc1ccccc1)OC(c1ccccc1)C(F)(F)F (stereo unspecified) | inactive: -12.1%
61 | [Au].[Au].c1ccc([PH+](c2ccccc2)c2ccccc2)cc1.c1ccc([PH+](c2ccccc2)c2ccccc2)cc1.n1n[nH]c(-c2nnn[nH]2)n1 | inactive: -15.3% [at 9.22 µM]
62 | Cc1cccc(C)c1OP(C)(=O)Nc1ccc(SC(F)(F)F)cc1 (stereo unspecified) | inactive: -31.2%
63 | COc1ccccc1OP(C)(=O)Nc1ccccc1 (stereo unspecified) | inactive: 1.03%
64 | CP(=O)(Nc1ccccc1Br)Oc1ccccc1 (stereo unspecified) | inactive: -3.67%
65 | CP(=S)(Nn1cnnc1)Oc1ccccc1 (stereo unspecified) | inactive: 21.4%
66 | N1=C(c2nnc(-c3nn[nH]n3)nn2)NNN1 | inactive: -4.86% [at 9.22 µM]
67 | COc1ccc(OP(C)(=O)Nc2cccc(F)c2)cc1 (stereo unspecified) | inactive: -5%
68 | Cc1cc(C)cc(OP(C)(N)=O)c1 (stereo unspecified) | inactive: 2.74%
69 | CCOC(=O)c1ccc(NP(C)(=O)Oc2ccccc2)cc1 (stereo unspecified) | inactive: 1.26%
70 | Cc1ccc(NP(C)(=O)Oc2ccccc2)c(C)c1 (stereo unspecified) | inactive: 52.3%
71 | COc1ccccc1OP(C)(=O)Nc1ccc(C)cc1 (stereo unspecified) | inactive: -28.1%
72 | Cc1cccc(C)c1OP(C)(N)=O (stereo unspecified) | inactive: 15.3%
73 | CC(C)(C)c1ccc(OP(C)(=O)Nc2ccc(SC(F)(F)F)cc2)cc1 (stereo unspecified) | inactive: -11.1%
74 | O=[N+]([O-])c1ccc2c(c1)C=Nc1ccccc1O2 | inactive: 2.78%
75 | O=[N+]([O-])[O-].[NH4+] | inactive: -10.6%
76 | CCN(CC)CCCOC(=O)C(O)(c1ccccc1)c1ccccc1 | inactive: 26.4%
